Experiments:
pancreatic beta-cells = assay: Galanin-inhibited glucose-induced insulin release (procedure of Ahrén et al.); type: cell-based, mice (ob/ob); conditions: galanin 10^-7 M, glucose 8.3 mM, 60 min incubation; glucose alone 34±2 µU/ml; N=32
Description: 1) Galanin inhibits glucose-induced insulin release, measured according to Ahrén, B., et al (Biochemical and Biophysical Research Communications, Vol. 140. No. 3, 1986, 1059-1063). By using the same procedure as the cited Ahrén B., et al, a peptide according to the invention, M15, is now shown to block the galanin-inhibited insulin release in equimolar concentration.
Adult obese hyperglycemic mice (ob/ob) of both sexes were taken from a local non-inbred colony and starved overnight. The animals were killed by decapitation and the islets were isolated by collagenase isolation technique. A cell suspension was prepared essentially as described by Lehrnmark, Å., in Diabetologia 10, 1974, 431-438. Briefly, the islets were dissociated into single cells and small clusters by shaking in a Ca^2+-Mg^2+-deficient medium supplemented with EGTA (Ethylene glycol-bis(beta-aminoethyl ether)N,N,N',N',-tetra-acetic acid, SIGMA). […]
The kinetics of insulin release were studied by perfusing pancreatic beta-cells (approx. 1 x 10^6) with 20 mM or 5 mM glucose mixed with Bio-Gel P-4 polyacrylamide beads (200-400 mesh, Bio-Rad Lab., Richmond, Ca, U.S.A.) in a 0.5 ml column. The flow rate was 0.5 ml/min and 1-3 min fractions were collected and analyzed for insulin radioimmunologically, using crystalline rat insulin as a reference.

[1] = tested on: scopolamine-induced release of ACh; assay: Microdialysis: scopolamine-induced release of ACh in vivo, ventral hippocampus; design: species or system rat; conditions: galanin 1.56 nmoles i.c.v. 2 min before scopolamine 0.3 mg/kg s.c.; n=2 rats
Protocol: 2) Galanin inhibits acetylcholine release, measured according to Fisone G., et al (Proc. Natl. Acad. Sci. vol 84, 1987, 7339-7343). By using substantially the same procedure as the cited Fisone G., et al, a peptide according to the invention, M15, is now shown to counteract the inhibitory effects of galanin on the scopolamine-induced release of acetylcholine in vivo.
Surgery and basic methodology. Experiments were carried out with female CD-COBS (Charles River, Como, Italy) rats, weighing 200-260 g. Animals were anesthetized with equitensin (1% pentobarbital, 4% chloral hydrate). […] The microdialysis probe extended 3 mm beyond the end of the guide cannula; it was perfused at a constant rate of 2 µl(min with Ringer's solution (NaCl, 147 mM; CaCl2, 2.2 mM and KCl, 4.0 mM), containing 10 µM physostigmine sulfate and adjusted to pH 7.0 with NaOH. The initial 40 min perfusate was discarded. Thereafter, perfusates were collected every 20 min during a total perfusion period of 260 min. At the end of the collection period, the samples were immediately frozen on solid CO2 and lyophilized. Acetylcholine (Ach) content was quantified by a specific radioenzymatic method described in detail by Consolo S., et al. (J. Neurochem. […]
Galanin (1.56 nmoles) and M15 (3.12 nmoles) were injected i.c.v. […] ACh release was measured in the perfusate collected during the following 80 min, in four 20 min-fractions. […]

flexor reflex = assay: Electrophysiological study: intrathecal galanin-induced facilitation of the flexor reflex; type: in vivo; conditions: 30 pmol galanin i.t.; decerebrated, spinalized rats
Description: 3) Effects of intrathecal galanin and C-fiber stimulation on the flexor reflex has been described by Wiesenfeld-Hallin Z., et al (Brain Res. 486 (1989)205-213). By using substantially the same procedure as the cited reference, a peptide according to the invention, M15, is shown to have an antagonistic effect on intrathecal galanin-induced facilitation of the flexor reflex.
In acute experiments, the magnitude of the polysynaptic hamstring flexor reflex in response to activation of high threshold afferents was examined in decerebrated, spinalized, unanaesthetized rats by recording the electromyogram (EMG) from the posterior bicepts femoris/semitendinosus muscles. […]
The flexor reflex was recorded as EMG activity via stainless steel needle electrodes inserted in the ipsilateral hamstring muscles. […] The integrated reflex was recorded on a Gould chart recorder (Model 2400 S). During the experiments the heart rate and rectal temperature of the rat were monitored and maintained within normal limits. […]
A stable baseline reflex magnitude was established for at least 20 min before each i.t. injection or nerve CS. The effect of i.t. peptides or the nerve CS on the flexor reflex was expressed as percent change in reflex magnitude compared to baseline which was defined as 100%. […]
The antagonistic effect of intrathecal (i.t.) M-15 on the i.t. galanin-induced facilitation of the flexor reflex was measured. […]

Substance: galanin
- insulin release (pancreatic beta-cells): 3±1 µU/ml
- ACh release (pmoles of ACh in the 20 min fraction at the peak of the scopolamine-effect) [1]: 6.9 pmol
- peak facilitatory effect over baseline reflex magnitude (flexor reflex): 167.0±42.8%
